From patent publication US20190337910A1, “ALLOSTERIC MODULATORS OF NICOTINIC ACETYLCHOLINE RECEPTORS” (MERCK SHARP & DOHME CORP., priority 2016, published 2019)
Where two headings read alike, the source gives them in different places.

The chains behind the UniProt entries cited, without tags or fusion partners. Residues count along the entry.
UniProt P36544, 23-502 limits assumed: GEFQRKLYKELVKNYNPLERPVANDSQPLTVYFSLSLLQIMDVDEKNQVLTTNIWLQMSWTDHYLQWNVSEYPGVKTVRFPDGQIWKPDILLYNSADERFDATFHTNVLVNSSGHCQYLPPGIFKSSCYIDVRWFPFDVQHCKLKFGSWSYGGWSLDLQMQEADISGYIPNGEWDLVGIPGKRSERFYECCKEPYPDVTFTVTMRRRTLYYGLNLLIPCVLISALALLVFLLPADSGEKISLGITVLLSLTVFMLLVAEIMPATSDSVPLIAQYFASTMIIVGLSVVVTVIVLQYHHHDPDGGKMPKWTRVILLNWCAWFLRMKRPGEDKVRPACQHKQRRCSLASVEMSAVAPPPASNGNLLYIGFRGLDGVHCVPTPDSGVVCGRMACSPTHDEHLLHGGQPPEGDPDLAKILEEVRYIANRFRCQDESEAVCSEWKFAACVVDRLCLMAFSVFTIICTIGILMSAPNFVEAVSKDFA

Target: human α7 nAChR stably expressed in a HEK cell line (with human RIC-3) (Homo sapiens, UniProt P36544)
Assay: Automated patch-clamp electrophysiology functional assay (Assay A), IonFlux HT, whole-cell population patch
Method: The α7 nAChR positive allosteric modulator (PAM) activity of the present compounds may be tested using assays known in the art. The α7 nAChR PAMs described herein have activities in an automated patch-clamp electrophysiology functional assay as described in the examples. The assay was performed using the IonFlux HT in a whole-cell, population patch configuration. See Golden et al. Assay Drug Dev. Technol. (2011) 9:608-619. The compounds were assessed for their ability to modulate the function of the human α7 nAChR stably expressed in a HEK cell line both in the presence, and in the absence of the natural α7 agonist acetylcholine. By performing a series of such measurements at different concentrations, the effective concentration of the α7 nAChR PAMs (EC50) was determined. See Spencer et al. Assay Drug Dev. Technol. (2012) 10:313-324.
Direct activation of α7 (agonism), and potentiation of acetylcholine-evoked α7 currents was determined as follows:
Automated Patch-Clamp Electrophysiology Functional Assay (Assay A)
Automated patch-clamp electrophysiology was performed using the IonFlux HT (Fluxion Biosciences Inc., San Francisco, Calif.) in the whole-cell, population patch configuration. Test compounds were assessed for their ability to modulate the function of the α7 nicotinic acetylcholine receptor both in the presence, and in the absence of the natural α7 agonist acetylcholine. A HEK cell line stably expressing both human RIC-3 and human α7 (PrecisION hnAChR α7/RIC-3, Eurofins Pharma, St. Charles, Mo.) was cultured in 175 cm^2 triple-layer tissue culture flasks to no more than 90% confluency in DMEM/F-12 growth media supplemented with 10% heat-inactivated fetal bovine serum, 1% non-essential amino acids, 0.625 μg/mL Puromycin, and 400 μg/mL Geneticin. Immediately prior to assay, cells were detached by first aspirating growth media, rinsing with Dulbecco's phosphate buffered saline, and then adding 10 mL of Accutase (Innovative Cell Technologies, San Diego, Calif.) to the flask and then incubating at 37° C. for 5 minutes. Detached cells were then recovered by the addition of 40 mL of CHO-serum-free media supplemented with 25 mM HEPES, and rocked gently in a 50 mL conical tube for 20 minutes prior to patch-clamp assay. After recovery, cells were pelleted by centrifugation at 1,000 RPM for 1 minute in a compact bench top centrifuge; recovery media was aspirated and cells were resuspended in external recording solution (150 mM NaCl, 5 mM KCl, 2 mM CaCl2, 1 mM MgCl2, 10 mM HEPES, 12 mM dextrose) to a density of 5.0×10^6 cells/mL. The cell suspension was added to the cell inlet wells on an IonFlux HT population patch plate which had previously been rinsed and primed with deionized H2O. Test compounds were serially diluted in DMSO and then resuspended to the final test concentration in external recording solution, with, or without 40 μM acetylcholine added to the external recording solution; test compounds were then transferred to the IonFlux HT population patch plate. Internal recording solution (110 mM TrisPO4, 28 mM TrisBase, 0.1 mM CaCl2, 2 mM MgCl2, 11 mM EGTA, 4 mM MgATP) was added to the internal recording solution inlet wells on the IonFlux HT patch plate previously loaded with cells and test compounds, and the plate loaded into the IonFlux HT instrument. A protocol was executed on the IonFlux HT to trap the cells, break into the cells, and establish the whole-cell recording configuration; cells were voltage-clamped at a holding potential of −60 mV for the duration of the experiment, all experiments were conducted at room temperature, and the IonFlux HT injection pressure was 8 psi for solution applications. Upon establishing the whole-cell configuration, external recording solution was perfused into the recording chambers for 120 seconds and then 40 μM acetylcholine was applied for 1 second and immediately washed off with external recording solution for 60 seconds. […]

[1] = read-out: α7 nAChR EC50, HEK cell line stably expressing human α7 and human RIC-3, 40 μM acetylcholine, holding potential −60 mV, room temperature
[2] = read-out: α7 nAChR Potency, automated patch-clamp electrophysiology functional assay (Assay A), potency class by EC50

Structure (SMILES)	EC50 [1] [µM]	EC50 [2] [µM]
COc1ccc(Cl)cc1-c1noc([C@H]2C[C@@H]2c2ccc(S(N)(=O)=O)cc2)n1		5 to 50
NS(=O)(=O)c1ccc([C@H]2C[C@@H]2c2ncc(-c3cccc(F)c3)s2)cc1 (relative stereo)	1.6	0.5 to 5
NS(=O)(=O)c1ccc([C@H]2C[C@@H]2c2nc(-c3ccccc3)co2)cc1 (relative stereo)		0.5 to 5

More lines, now with the values ahead:

EC50 [1] [µM]	EC50 [2] [µM]	Structure (SMILES)
4.9	0.5 to 5	NS(=O)(=O)c1ccc([C@H]2C[C@@H]2c2nc(-c3cccc(F)c3)cs2)cc1
	0.5 to 5	Cc1ccc(F)cc1-c1noc([C@@H]2[C@@H](c3ccc(S(N)(=O)=O)cc3)C2(C)C)n1 (relative stereo)
0.82	0.5 to 5	CC1(C)C(c2ccc(S(N)(=O)=O)cc2)C1c1nnc(-c2ccc(F)cc2F)s1 (stereo not drawn)
